Assays:
[1] = system: 24-hydroxylase mRNA; assay: 24-OHase mRNA induction in human skin in vivo after topical application (Northern blot); conditions: for 24-OHase mRNA expression, agent alone: human skin in vivo, applied by itself
[2] = system: CRABP-II mRNA; assay: CRABP-II mRNA induction in human skin in vivo (reprobed blots)

Compound	enhancement of 24-OHase mRNA level induced by a low dose of 1,25(OH)2 D3 ([1]; co-applied with low dose (0.002%) 1,25(OH)2 D3, discussion)	24-OHase mRNA expression, agent alone ([1]; discussion)	CRABP-II mRNA levels [2]	increase in 24-OHase transcription level compared to 1,25(OH)2 D3 treatment alone ([1]; RA isomer (0.1%) added to 0.002% 1,25(OH)2D3) [%]
CC1=C(/C=C/C(C)=C/C=C/C(C)=C/C(=O)O)C(C)(C)CCC1 [t-RA, All-trans-retinoic acid]	synergistically enhanced	neither 9-c-RA nor t-RA alone induced	markedly induced	–
CC1=C(/C=C/C(C)=C\C=C\C(C)=C\C(=O)O)C(C)(C)CCC1 [9-c-RA, 9-cis retinoic acid]	–	neither 9-c-RA nor t-RA alone induced	markedly induced	76

— US5998393A, “Methods for assessing 1,25(OH)2 D3 activity in skin and for enhancing the therapeutic use of 1,25(OH)2 D3” (priority 1997, dated 1999)
